The entries are a selection whose mix differs from that of the whole data set. Some results for these compounds are left out of this collection, so the calls shown say nothing about other tests. The source made the active and inactive calls.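 How the source made its calls: active means at 10 µM dose, activation of 40% or more, normalized to positive control; inactive means the rest.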
Experiment: PERK-eIF2a-CHOP pathway stimulators – cell-based, CHO-CHOP luciferase reporter, luminescence, uHTS, primary screen (AID 449763);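 further: 100% = tunicamycin at 10 µg/mL and 0% = DMSO alone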
Details: UPR activation, at 10 µM, hits give high values, percent of tunicamycin response over DMSO baseline
Summary of the method: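 Test system: CHO-CHOP cells, stable luciferase reporter of PERK-eIF2a-CHOP signalling | Quantity: 500 CHO-CHOP cells per well | Buffer or medium: F12 plus 10% serum | Compound dosing: 10 µM single point, 0.5% DMSO | Schedule: 6 h compound treatment, 37 °C | Signal: Luciferase luminescence | Control set: Tunicamycin high control, DMSO low control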
In the case of Cc1cc(C(=O)NCC2(N3CCCCC3)CCCCC2)ccc1[N+](=O)[O-], the activation is reported as inactive: 1.39%. With CCN1CCCC(OC(=O)C2(O)c3ccccc3C=Cc3ccccc32)C1 (centres undefined) the activation was inactive: -2.21%. In the case of O=C(NCC1(N2CCCCC2)CCCCC1)c1cccc(Br)c1, the activation is reported as inactive: -0.346%. In the case of COc1ccc(C(=O)NCC2(N(C)C)CCCCC2)cc1, the activation is reported as inactive: 0.436%. For C=CCN1CCN(CCOC(=O)C(O)(c2ccccc2)c2ccccc2)CC1, the activation was inactive: -1.3%. In the case of O=C(NCC1(N2CCCCC2)CCCCC1)c1cc(F)c(F)cc1Cl, the activation is reported as inactive: 0.373%. For Cc1ccccc1C(=O)NCC1(N2CCCCC2)CCCCC1, the activation was inactive: -1.33%. With CN(C)C1CCCC1OC(=O)C(O)(c1ccccc1)c1ccccc1 (centres undefined) the activation was inactive: 0.639%. For CN(C)c1ccc(C(=O)NCC2(N(C)C)CCCCC2)cc1, the activation was inactive: -1.16%. In the case of Cc1ccc(C(=O)NCC2(N3CCCCC3)CCCCC2)cc1, the activation is reported as inactive: -1.55%. For CC(C)N1C(=O)CC2(CCN(CCOC(=O)C(O)(c3ccccc3)c3ccccc3)CC2)C1=O, the activation was inactive: -3.13%. For CCN(CC)CC(C)C(C)OC(=O)C(O)(c1ccccc1)c1ccccc1 (centres undefined), the activation was inactive: -0.995%. For COc1cc(SC)ccc1C(=O)NCC1(N(C)C)CCCCC1, the activation was inactive: -0.257%. With CN1[C@@H]2CC[C@H]1CC(OC(=O)C(O)(c1ccccc1)c1ccccc1)C2 (some centres undefined) the activation was inactive: -0.843%. With O=C(NCC1(N2CCCCC2)CCCCC1)c1cc([N+](=O)[O-])ccc1Cl the activation was inactive: -2.09%. In the case of CN(C)c1cccc(C(=O)NCC2(N(C)C)CCCCC2)c1, the activation is reported as inactive: 0.073%. In the case of CC(C)Oc1ccc(C(=O)NCC2(N(C)C)CCCCC2)cc1, the activation is reported as inactive: 0.965%. With COc1ccc(Br)c(C(=O)NCC2(N3CCCCC3)CCCCC2)c1 the activation was inactive: -1.88%. With O=C(OC1CN2CCC1CC2)C(CO)(c1ccccc1)c1ccccc1 (centres undefined) the activation was inactive: -2.6%. For O=C(NCC1(N2CCCCC2)CCCCC1)c1cccc(Cl)c1, the activation was inactive: -0.606%. In the case of COc1cccc(C(=O)NCC2(N3CCCCC3)CCCCC2)c1, the activation is reported as inactive: 1.57%. For COc1ccc(Cl)cc1C(=O)NCC1(N(C)C)CCCCC1, the activation was inactive: 1.62%. For COc1cc(C(=O)NCC2(N(C)C)CCCCC2)c([N+](=O)[O-])cc1OC, the activation was inactive: 1.51%. In the case of CN(C)C1(CNC(=O)c2ccc(Br)cc2)CCCCC1, the activation is reported as inactive: -2.49%.
